Literature values, collected in US6858018B1.
Some compounds may have been tested in ways that are not shown here.

Settings: humans; cited from earlier work

For `CCC(=O)N(c1ccccc1)C1(COC)CCN(CCc2cccs2)CC1`, the terminal half-life is given as 2.5 h.
